IC50 data for 1 compound are collected here from ChEMBL document CHEMBL2150924, “Inhibition of NaV1.6 sodium channel currents by a novel series of 1,4-disubstituted-triazole derivatives obtained via copper-catalyzed click chemistry” (Bioorg Med Chem Lett, 2012).

Sequences of proteins named here, by UniProt entry; tags and fusion partners are left off.
UniProt O88420, whole entry: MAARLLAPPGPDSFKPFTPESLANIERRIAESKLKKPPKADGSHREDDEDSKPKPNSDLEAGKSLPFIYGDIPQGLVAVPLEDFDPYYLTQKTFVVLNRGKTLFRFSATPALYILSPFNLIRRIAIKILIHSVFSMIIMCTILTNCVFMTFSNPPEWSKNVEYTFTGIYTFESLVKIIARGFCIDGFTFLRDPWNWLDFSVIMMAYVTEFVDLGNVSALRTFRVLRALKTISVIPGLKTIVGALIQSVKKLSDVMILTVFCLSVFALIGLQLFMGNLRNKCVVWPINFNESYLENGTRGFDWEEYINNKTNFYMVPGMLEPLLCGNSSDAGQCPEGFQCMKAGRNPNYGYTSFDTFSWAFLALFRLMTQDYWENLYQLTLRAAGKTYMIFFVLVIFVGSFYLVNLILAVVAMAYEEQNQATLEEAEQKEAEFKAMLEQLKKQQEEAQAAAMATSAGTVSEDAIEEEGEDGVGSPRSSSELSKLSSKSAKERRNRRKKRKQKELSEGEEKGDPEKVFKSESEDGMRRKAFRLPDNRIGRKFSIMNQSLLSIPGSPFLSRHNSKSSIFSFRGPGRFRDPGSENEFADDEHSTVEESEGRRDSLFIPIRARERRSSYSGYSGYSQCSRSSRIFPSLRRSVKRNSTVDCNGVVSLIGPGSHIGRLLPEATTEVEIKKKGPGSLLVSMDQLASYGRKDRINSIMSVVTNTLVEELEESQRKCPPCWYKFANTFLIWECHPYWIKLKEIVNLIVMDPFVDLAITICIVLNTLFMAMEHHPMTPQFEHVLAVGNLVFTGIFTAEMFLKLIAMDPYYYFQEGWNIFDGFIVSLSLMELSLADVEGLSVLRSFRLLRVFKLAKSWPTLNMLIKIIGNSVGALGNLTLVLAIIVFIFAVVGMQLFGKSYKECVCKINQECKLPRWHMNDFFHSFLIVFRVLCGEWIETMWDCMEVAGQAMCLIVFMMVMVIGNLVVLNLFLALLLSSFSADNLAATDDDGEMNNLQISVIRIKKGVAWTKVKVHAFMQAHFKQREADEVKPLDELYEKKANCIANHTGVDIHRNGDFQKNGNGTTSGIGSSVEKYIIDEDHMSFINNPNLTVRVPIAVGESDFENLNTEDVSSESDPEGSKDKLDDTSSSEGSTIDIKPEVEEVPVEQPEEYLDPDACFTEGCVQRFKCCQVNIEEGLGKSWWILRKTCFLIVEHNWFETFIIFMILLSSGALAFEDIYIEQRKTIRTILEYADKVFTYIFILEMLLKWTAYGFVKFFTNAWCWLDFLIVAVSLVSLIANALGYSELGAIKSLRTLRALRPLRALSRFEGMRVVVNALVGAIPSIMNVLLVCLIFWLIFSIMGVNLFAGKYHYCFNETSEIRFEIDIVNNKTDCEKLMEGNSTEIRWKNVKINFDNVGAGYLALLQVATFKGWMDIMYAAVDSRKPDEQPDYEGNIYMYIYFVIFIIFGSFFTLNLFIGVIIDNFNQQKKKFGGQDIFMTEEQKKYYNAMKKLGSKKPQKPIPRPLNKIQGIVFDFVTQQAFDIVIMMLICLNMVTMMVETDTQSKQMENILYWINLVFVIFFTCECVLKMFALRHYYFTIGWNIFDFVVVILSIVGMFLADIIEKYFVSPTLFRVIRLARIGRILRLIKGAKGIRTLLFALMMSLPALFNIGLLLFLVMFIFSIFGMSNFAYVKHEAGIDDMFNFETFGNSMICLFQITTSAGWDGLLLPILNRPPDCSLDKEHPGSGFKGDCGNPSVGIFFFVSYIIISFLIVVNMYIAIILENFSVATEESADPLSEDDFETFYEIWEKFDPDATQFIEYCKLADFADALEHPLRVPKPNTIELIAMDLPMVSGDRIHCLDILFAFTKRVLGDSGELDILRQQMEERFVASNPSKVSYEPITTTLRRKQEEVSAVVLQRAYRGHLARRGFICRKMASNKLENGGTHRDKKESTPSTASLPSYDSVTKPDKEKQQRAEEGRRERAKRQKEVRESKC

pIC50: −log10 of the molar value.

A word on the pIC50: it is the negative decadic logarithm of the IC50, by convention in mol/L. A low value points to a high IC50.

In this assay the target is Sodium channel protein type 8 subunit alpha (Rattus norvegicus, UniProt O88420). In words: Inhibition of rat NaV1.6-mediated current expressed in human HEK293 cells by patch clamp assay. In kind it is cell-based. (In general: In patch-clamp work, channel activity is measured electrically.)

Compound `c1ccc(-c2c[nH]c(-c3ccccc3)n2)cc1` showed a pIC50 of 4.49.
